Experimental data from PubChem BioAssay (NCI).
Some tests of the compounds listed are not included; inactive here does not mean inactive elsewhere.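 Results reflect a 48-hour exposure of cells in 96-well plates to compound at five concentrations. GI50 = concentration required for 50% inhibition of growth. The concentration for full growth arrest is given as TGI.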

Legend:
Test in all cases: growth of human tumour cells (NCI), 48 h
[1] = system: UACC-62 melanoma
[2] = system: NCI/ADR-RES ovarian
[3] = system: MDA-N
[4] = system: 786-0 renal
[5] = system: HS 578T breast
[6] = system: HT29 colon
[7] = system: SR leukemia
[8] = system: A549 NSCLC
[9] = system: SN12C renal
[10] = system: SF-268 CNS
[11] = system: LOX IMVI melanoma
[12] = system: T-47D breast
[13] = system: MALME-3M melanoma
[14] = system: OVCAR-4 ovarian
[15] = system: SF-295 CNS
[16] = system: BT-549 breast
[17] = system: MCF7 breast
[18] = system: EKVX NSCLC
[19] = system: MDA-MB-435
[20] = system: HCT-15 colon
[21] = system: OVCAR-3 ovarian
[22] = system: CCRF-CEM leukemia
[23] = system: U251 CNS
[24] = system: MOLT-4 leukemia
[25] = system: UO-31 renal
[26] = system: ACHN renal
[27] = system: OVCAR-8 ovarian
[28] = system: COLO 205 colon
[29] = system: A498 renal
[30] = system: SNB-19 CNS
[31] = system: DU-145 prostate
[32] = system: RPMI-8226 leukemia
[33] = system: IGROV1 ovarian
[34] = system: NCI-H23 lung
[35] = system: HCT-116 colon
[36] = system: TK-10 renal
[37] = system: PC-3 prostate
[38] = system: SK-MEL-28 melanoma
[39] = system: SF-539 CNS
[40] = system: UACC-257 melanoma
[41] = system: HOP-62 NSCLC
[42] = system: MDA-MB-231 breast
[43] = system: SK-MEL-5 melanoma
[44] = system: CAKI-1 renal
[45] = system: M14 melanoma
[46] = system: SK-MEL-2 melanoma
[47] = system: SK-OV-3 ovarian
[48] = system: HL-60(TB) leukemia
[49] = system: NCI-H522 lung
[50] = system: NCI-H322M lung
[51] = system: RXF 393 renal
[52] = system: OVCAR-5 ovarian
[53] = system: K-562 leukemia
[54] = system: SNB-75 CNS
[55] = system: NCI-H226 lung
[56] = system: HOP-92 NSCLC

CN1CCCC(OC(=O)C(O)(C#Cc2ccccc2)c2ccccc2)C1 (configuration not stated)
GI50 [1]: > 100 µM | TGI [1]: > 100 µM | GI50 [2]: > 100 µM | TGI [2]: > 100 µM | GI50 [3]: > 100 µM | TGI [3]: > 100 µM | GI50 [4]: > 100 µM | TGI [4]: > 100 µM | GI50 [5]: > 100 µM | TGI [5]: > 100 µM | GI50 [6]: > 100 µM | TGI [6]: > 100 µM | GI50 [7]: 51.1 µM | TGI [7]: > 100 µM | GI50 [8]: > 100 µM | TGI [8]: > 100 µM | GI50 [9]: > 100 µM | TGI [9]: > 100 µM | GI50 [10]: > 100 µM | TGI [10]: > 100 µM | GI50 [11]: > 100 µM | TGI [11]: > 100 µM | GI50 [12]: > 100 µM | TGI [12]: > 100 µM | GI50 [13]: > 100 µM | TGI [13]: > 100 µM | GI50 [14]: > 100 µM | TGI [14]: > 100 µM | GI50 [15]: > 100 µM | TGI [15]: > 100 µM | GI50 [16]: > 100 µM | TGI [16]: > 100 µM | GI50 [17]: > 100 µM | TGI [17]: > 100 µM | GI50 [18]: > 100 µM | TGI [18]: > 100 µM | GI50 [19]: > 100 µM | TGI [19]: > 100 µM | GI50 [20]: > 100 µM | TGI [20]: > 100 µM | GI50 [21]: > 100 µM | TGI [21]: > 100 µM | GI50 [22]: > 100 µM | TGI [22]: > 100 µM | GI50 [23]: > 100 µM | TGI [23]: > 100 µM | GI50 [24]: > 100 µM | TGI [24]: > 100 µM | GI50 [25]: > 100 µM | TGI [25]: > 100 µM | GI50 [26]: > 100 µM | TGI [26]: > 100 µM | GI50 [27]: > 100 µM | TGI [27]: > 100 µM | GI50 [28]: > 100 µM | TGI [28]: > 100 µM | GI50 [29]: > 100 µM | TGI [29]: > 100 µM | GI50 [30]: > 100 µM | TGI [30]: > 100 µM | GI50 [31]: > 100 µM | TGI [31]: > 100 µM | GI50 [32]: > 100 µM | TGI [32]: > 100 µM | GI50 [33]: > 100 µM | TGI [33]: > 100 µM | GI50 [34]: > 100 µM | TGI [34]: > 100 µM | GI50 [35]: > 100 µM | TGI [35]: > 100 µM | GI50 [36]: > 100 µM | TGI [36]: > 100 µM | GI50 [37]: > 100 µM | TGI [37]: > 100 µM | GI50 [38]: > 100 µM | TGI [38]: > 100 µM | GI50 [39]: > 100 µM | TGI [39]: > 100 µM | GI50 [40]: > 100 µM | TGI [40]: > 100 µM | GI50 [41]: > 100 µM | TGI [41]: > 100 µM | GI50 [42]: > 100 µM | TGI [42]: > 100 µM | GI50 [43]: > 100 µM | TGI [43]: > 100 µM | GI50 [44]: > 100 µM | TGI [44]: > 100 µM | GI50 [45]: > 100 µM | TGI [45]: > 100 µM | GI50 [46]: > 100 µM | TGI [46]: > 100 µM | GI50 [47]: > 100 µM | TGI [47]: > 100 µM | GI50 [48]: > 100 µM | TGI [48]: > 100 µM | GI50 [49]: > 100 µM | TGI [49]: > 100 µM | GI50 [50]: > 100 µM | TGI [50]: > 100 µM | GI50 [51]: > 100 µM | TGI [51]: > 100 µM | GI50 [52]: > 100 µM | TGI [52]: > 100 µM | GI50 [53]: > 100 µM | TGI [53]: > 100 µM | GI50 [54]: > 100 µM | TGI [54]: > 100 µM | GI50 [55]: > 100 µM | TGI [55]: > 100 µM | GI50 [56]: > 100 µM | TGI [56]: > 100 µM
